In PubChem BioAssay AID1259374 (The Scripps Research Institute Molecular Screening Center, 2018):
Only a part is listed here, and it is no random draw. Active and inactive are the calls of the source. No stated cut-off is given here; in the data, active means inhibition above about 50%; inactive means the rest.

Amino acid sequences for entries named in this document (tags omitted).
UniProt O75030, whole entry: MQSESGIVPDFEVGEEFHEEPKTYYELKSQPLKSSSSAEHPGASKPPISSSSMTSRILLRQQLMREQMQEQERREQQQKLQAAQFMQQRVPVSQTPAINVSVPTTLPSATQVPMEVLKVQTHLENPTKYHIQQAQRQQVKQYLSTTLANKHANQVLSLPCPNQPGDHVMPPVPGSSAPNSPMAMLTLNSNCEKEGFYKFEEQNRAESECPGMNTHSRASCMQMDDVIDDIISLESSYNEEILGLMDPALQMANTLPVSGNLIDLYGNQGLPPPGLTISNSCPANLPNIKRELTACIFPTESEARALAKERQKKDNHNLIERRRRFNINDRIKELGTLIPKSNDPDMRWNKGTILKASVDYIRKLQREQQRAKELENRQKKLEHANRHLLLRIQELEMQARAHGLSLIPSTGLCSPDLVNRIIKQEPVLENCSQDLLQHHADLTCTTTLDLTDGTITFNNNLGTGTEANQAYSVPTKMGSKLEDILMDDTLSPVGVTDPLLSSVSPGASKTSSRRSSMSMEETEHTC

molecular target: Microphthalmia-associated transcription factor (Homo sapiens) (UniProt O75030); test: MITF inhibitors, primary screen, biochemical, AlphaScreen, human (AID 1259374); settings: AlphaScreen MITF homodimerization, bead proximity signal; at 2.6 µM; hits give high values;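 further: 0% = vehicle wells with protein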

SMILES | inhibition
CN(CCCl)CCCl | inactive: -16.7%
